From PubChem BioAssay (EPA / NIEHS) come the findings set out here.

Chains of the proteins cited; added tags and fusions are not shown.
UniProt P10415, whole entry: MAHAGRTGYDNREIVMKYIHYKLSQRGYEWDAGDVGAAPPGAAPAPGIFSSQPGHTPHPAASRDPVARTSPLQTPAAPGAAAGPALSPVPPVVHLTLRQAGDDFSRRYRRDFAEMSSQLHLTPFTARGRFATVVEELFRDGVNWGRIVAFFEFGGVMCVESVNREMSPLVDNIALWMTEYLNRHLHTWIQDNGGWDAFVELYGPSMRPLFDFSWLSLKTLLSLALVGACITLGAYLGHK
UniProt P42574, whole entry: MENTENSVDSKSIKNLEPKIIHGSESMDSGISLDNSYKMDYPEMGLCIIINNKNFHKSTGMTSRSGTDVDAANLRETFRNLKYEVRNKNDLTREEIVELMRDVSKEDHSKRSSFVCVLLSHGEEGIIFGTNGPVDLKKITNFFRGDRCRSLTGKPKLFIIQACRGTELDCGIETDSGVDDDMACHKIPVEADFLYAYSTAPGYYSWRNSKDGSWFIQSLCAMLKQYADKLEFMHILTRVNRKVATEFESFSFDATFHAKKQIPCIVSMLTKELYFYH
UniProt P33261, whole entry: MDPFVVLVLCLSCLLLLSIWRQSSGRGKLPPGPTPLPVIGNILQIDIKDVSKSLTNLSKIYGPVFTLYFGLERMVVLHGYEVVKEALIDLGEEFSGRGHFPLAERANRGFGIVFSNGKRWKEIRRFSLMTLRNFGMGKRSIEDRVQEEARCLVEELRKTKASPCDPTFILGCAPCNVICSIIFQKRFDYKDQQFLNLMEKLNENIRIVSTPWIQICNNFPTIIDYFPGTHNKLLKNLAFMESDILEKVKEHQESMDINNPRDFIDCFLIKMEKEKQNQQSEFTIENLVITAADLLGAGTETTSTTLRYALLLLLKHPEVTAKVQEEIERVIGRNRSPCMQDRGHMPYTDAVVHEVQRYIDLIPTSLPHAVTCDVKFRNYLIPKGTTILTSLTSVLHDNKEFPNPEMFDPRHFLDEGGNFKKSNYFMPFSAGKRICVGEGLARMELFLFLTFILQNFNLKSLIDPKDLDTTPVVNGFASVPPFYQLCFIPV

What is called AC50 is the concentration at which the activity in the assay is half-maximal.

The entries are a selection whose mix differs from that of the whole data set. The source made the active and inactive calls. Rule for the calls: active = hit-call score of the fitted dose curve at least 0.9, where 1 is the maximum; inactive = score below 0.9.

Details in all cases: actives raise or lower the signal; mRNA level, 48 h
Read-out in experiment [1]: ATP-citrate lyase (ACLY), ACLY (gene 47)
The experiment is described as follows: LTEA_HepaRG_ACLY: Life Technologies and Expression Analysis (LTEA) Assay for ATP-citrate lyase (ACLY) using HepaRG (AID 2283466). The method, boiled down:
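ACLY expression changes in human HepaRG liver cells are quantified by qRT-PCR after 48 h exposure to test chemicals (maximum 100 uM, half-log steps). Values are fitted in both directions relative to 0.5% DMSO vehicle.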

Read-out in experiment [2]: Peroxisomal acyl-coenzyme A oxidase 1 (ACOX1) gene, ACOX1 (gene 51)
Put plainly: LTEA_HepaRG_ACOX1: Life Technologies and Expression Analysis (LTEA) Assay for Peroxisomal acyl-coenzyme A oxidase 1 (ACOX1) gene using HepaRG (AID 2283467). The method, boiled down: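 Human HepaRG hepatic cultures, 48 h treatment with test chemicals up to 100 uM. ACOX1 expression read by qRT-PCR relative to 0.5% DMSO vehicle.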

Read-out in experiment [3]: Alkaline Phosphatase, Placental (ALPP) gene, ALPP (gene 250)
The experiment is described as follows: LTEA_HepaRG_ALPP: Life Technologies and Expression Analysis (LTEA) Assay for Alkaline Phosphatase, Placental (ALPP) gene using HepaRG (AID 2283468). The method, boiled down: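 Using human liver HepaRG cells, chemicals are tested in duplicate over 48 h at half-log concentrations topping at 100 uM; phenobarbital 1 mM serves as induction control. ALPP mRNA change by qRT-PCR, bidirectional fit against vehicle.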

Read-out in experiment [4]: Bcl-2 (BAD) gene, BAD (gene 572)
Put plainly: LTEA_HepaRG_BAD: Life Technologies and Expression Analysis (LTEA) Assay for Bcl-2 (BAD) gene using HepaRG (AID 2283469). The method, boiled down:
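Activity values reflect up- or down-regulation of BAD mRNA in human HepaRG hepatic cells treated 48 h in serum-free medium, with eight-point half-log dosing capped at 100 uM and 0.5% DMSO vehicle.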

Read-out in experiment [5]: Bcl-2 (BAX) gene, BAX (gene 581)
Put plainly: LTEA_HepaRG_BAX: Life Technologies and Expression Analysis (LTEA) Assay for Bcl-2 (BAX) gene using HepaRG (AID 2283470). The method, boiled down:
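qRT-PCR read-out of BAX mRNA, normalized to three housekeeping genes, after 48 h chemical exposure of human HepaRG cells in serum-free induction medium; eight-point half-log series, top 100 uM, 0.5% DMSO vehicle; bidirectional fit versus DMSO.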

Read-out in experiment [6]: adenosine kinase (ADK) gene, ADK (gene 132)
The experiment is described as follows: LTEA_HepaRG_ADK: Life Technologies and Expression Analysis (LTEA) Assay for adenosine kinase (ADK) gene using HepaRG (AID 2283471). The method, boiled down:
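HepaRG (human liver), 48 h chemical exposure, 8-pt half-log series, top 100 uM, 0.5% DMSO vehicle. Readout: ADK mRNA by qRT-PCR vs housekeeping genes; bidirectional curve fit relative to DMSO baseline.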

Read-out in experiment [7]: Alpha-fetoprotein (AFP) gene, AFP (gene 174)
The experiment is described as follows: LTEA_HepaRG_AFP: Life Technologies and Expression Analysis (LTEA) Assay for Alpha-fetoprotein (AFP) gene using HepaRG (AID 2283472). The method, boiled down: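 qRT-PCR (Fluidigm TaqMan) readout of AFP transcript, normalized to three housekeeping genes, fitted bidirectionally against 0.5% DMSO baseline. HepaRG cells received chemicals for 48 h in serum-free induction medium, top concentration 100 uM, half-log steps.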

Read-out in the next experiment: BCL2L11 (gene 10018)
Put plainly: LTEA_HepaRG_BCL2L11: Life Technologies and Expression Analysis (LTEA) Assay for Bcl-2 (BCL2L11) gene using HepaRG (AID 2283473). The method, boiled down:
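Human hepatic HepaRG cultures are treated 48 h with test chemicals (maximum 100 uM, 0.5% DMSO vehicle). Expression of BCL2L11 is measured by qRT-PCR against ACTB, GAPDH and POLR2A, with activity in either direction scored relative to vehicle.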

Read-out in experiment [8]: Apolipoprotein A-V (APOA5) gene, APOA5 (gene 116519)
Put plainly: LTEA_HepaRG_APOA5: Life Technologies and Expression Analysis (LTEA) Assay for Apolipoprotein A-V (APOA5) gene using HepaRG (AID 2283474). The method, boiled down:
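Concentration-response of APOA5 expression in HepaRG: eight half-log doses to 100 uM, 48 h, qRT-PCR normalized to ACTB/GAPDH/POLR2A, bidirectional fitting with 0.5% DMSO as baseline.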

Read-out in experiment [9]: Apoptosis regulator Bcl-2 (Homo sapiens) (UniProt P10415)
The experiment is described as follows: LTEA_HepaRG_BCL2: Life Technologies and Expression Analysis (LTEA) Assay for Bcl-2 gene using HepaRG (AID 2283475).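 Note: BCL2 transcript by TaqMan qRT-PCR normalised to ACTB GAPDH and POLR2A.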 The method, boiled down:
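qRT-PCR read-out (Fluidigm TaqMan) of BCL2 transcript, normalised to three housekeeping genes, after 48 h chemical exposure of HepaRG cells; 8-point half-log series, top 100 uM, 0.5% DMSO vehicle. Gain or loss of signal fitted relative to DMSO baseline.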

Read-out in experiment [10]: Bcl-2 (BID) gene, BID (gene 637)
The experiment is described as follows: LTEA_HepaRG_BID: Life Technologies and Expression Analysis (LTEA) Assay for Bcl-2 (BID) gene using HepaRG (AID 2283476). The method, boiled down: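 HepaRG, 48 h exposure, 8-pt half-log series, top 100 uM, 0.5% DMSO vehicle, duplicates. Readout: BID mRNA by TaqMan qRT-PCR; housekeeping-normalized; bidirectional curve fit vs DMSO baseline.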

Read-out in another experiment: Caspase-3 (Homo sapiens) (UniProt P42574)
Put plainly: LTEA_HepaRG_CASP3: Life Technologies and Expression Analysis (LTEA) Assay for cysteine-aspartic acid protease (CASP3) using HepaRG (AID 2283477). The method, boiled down: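 Transcript-level assay: CASP3 mRNA in human HepaRG after 48 h treatment, eight half-log concentrations from 100 uM in 0.5% DMSO, quantified by qRT-PCR.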

Read-out in experiment [11]: Cytochrome P450 (CYP24A1), CYP24A1 (gene 1591)
The experiment is described as follows: LTEA_HepaRG_CYP24A1: Life Technologies and Expression Analysis (LTEA) Assay for Cytochrome P450 (CYP24A1) using HepaRG (AID 2283478). The method, boiled down: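 Gene expression of CYP24A1 by TaqMan qRT-PCR in HepaRG after 48 h treatment, highest concentration 100 uM; activity fitted in both directions relative to DMSO vehicle.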

Read-out in experiment [12]: Cytochrome P450 (CYP1A2), CYP1A2 (gene 1544)
Put plainly: LTEA_HepaRG_CYP1A2: Life Technologies and Expression Analysis (LTEA) Assay for Cytochrome P450 (CYP1A2) using HepaRG (AID 2283479).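 For AC50: TaqMan qRT-PCR transcript level normalized to ACTB GAPDH and POLR2A.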 The method, boiled down:
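In duplicate wells, HepaRG cultures maintained in 0.5% DMSO were treated 48 h across an 8-point, half-log series topping at 100 uM; phenobarbital (1 mM) served as induction control. Expression was read by qRT-PCR.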

Read-out in experiment [13]: cysteine-aspartic acid protease (CASP8), CASP8 (gene 841)
Put plainly: LTEA_HepaRG_CASP8: Life Technologies and Expression Analysis (LTEA) Assay for cysteine-aspartic acid protease (CASP8) using HepaRG (AID 2283480). The method, boiled down: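 Concentration-response in duplicate up to 100 uM (half-log steps, 0.5% DMSO) on differentiated HepaRG cultures for 48 h. Expression change of CASP8 mRNA is determined by TaqMan qRT-PCR with housekeeping-gene normalization.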

Read-out in experiment [14]: Cytochrome P450 (CYP2B6), CYP2B6 (gene 1555)
The experiment is described as follows: LTEA_HepaRG_CYP2B6: Life Technologies and Expression Analysis (LTEA) Assay for Cytochrome P450 (CYP2B6) using HepaRG (AID 2283481). The method, boiled down:
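Human HepaRG, 48 h dosing, 0.5% DMSO vehicle, top dose 100 uM. CYP2B6 transcript by qRT-PCR, housekeeping-normalized, bidirectional curve fit.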

Read-out in experiment [15]: Cytochrome P450 2C19 (Homo sapiens) (UniProt P33261)
The experiment is described as follows: LTEA_HepaRG_CYP2C19: Life Technologies and Expression Analysis (LTEA) Assay for CYP2C19 using HepaRG (AID 2283482). The method, boiled down:
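Endpoint: CYP2C19 mRNA change, bidirectional fit vs 0.5% DMSO. Cells: HepaRG, 48 h exposure, eight-point series topping at 100 uM. Quantitation: qRT-PCR normalized to ACTB, GAPDH, POLR2A.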

Read-out in the next experiment: CYP2C8 (gene 1558)
The experiment is described as follows: LTEA_HepaRG_CYP2C8: Life Technologies and Expression Analysis (LTEA) Assay for CYP2C8 using HepaRG (AID 2283483). The method, boiled down:
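This is a transcriptional endpoint in HepaRG cultures: 48 h exposure, highest concentration 100 uM. CYP2C8 mRNA is quantified by TaqMan qRT-PCR.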

Read-out in a further experiment: CYP2C9 (gene 1559)
Put plainly: LTEA_HepaRG_CYP2C9: Life Technologies and Expression Analysis (LTEA) Assay for CYP2C9 using HepaRG (AID 2283484). The method, boiled down:
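Eight-point concentration-response (highest 100 uM, half-log dilutions) in HepaRG cells for 48 h; CYP2C9 expression by qRT-PCR normalized to ACTB, GAPDH, POLR2A. Bidirectional fit, DMSO baseline.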

Read-out in another experiment: CYP2E1 (gene 1571)
Put plainly: LTEA_HepaRG_CYP2E1: Life Technologies and Expression Analysis (LTEA) Assay for CYP2E1 using HepaRG (AID 2283485). The method, boiled down: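 CYP2E1 transcript was measured by TaqMan qRT-PCR in human HepaRG cultures after 48 h chemical exposure (top 100 uM, half-log steps, 0.5% DMSO vehicle). Housekeeping-gene normalization; gain or loss fitted relative to DMSO baseline.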

Regarding `Cc1ccc([N+](=O)[O-])cc1[N+](=O)[O-]`, the call in [1], in experiment [2], in experiment [3], in experiment [4], in [5] and in [6] was inactive. Moreover, the outcome (in experiment [7]; with BCL2L11 (gene 10018); in experiment [8]; in [9]; in experiment [10]; with Caspase-3 (Homo sapiens)) was inactive. Also, the compound was classed as inactive (in experiment [11]; in [13]; in the experiment with CYP2C8 (gene 1558); with CYP2C9 (gene 1559)). In addition, the AC50 was active: 23.2 µM in [12], active: 32.2 µM in experiment [14] and active: 32.5 µM in experiment [15].
As for `CC(C)OP(C)(=O)OC(C)C`, the outcome in experiment [1], in [2], in experiment [3], in experiment [4], in experiment [5] and in [6] was inactive. The result (in experiment [7]; with BCL2L11 (gene 10018); in experiment [8]; in [9]; in experiment [10]; in the experiment with Caspase-3 (Homo sapiens)) was inactive. Further, the compound was called inactive (in experiment [11]; in [12]; in experiment [13]; in experiment [14]; in [15]; with CYP2C8 (gene 1558)). The compound was classed as inactive in the experiment with CYP2C9 (gene 1559) and with CYP2E1 (gene 1571).
`Cc1cccc([N+](=O)[O-])c1[N+](=O)[O-]`: the call in experiment [1], in [2], in experiment [3], in experiment [4], in experiment [5] and in experiment [6] was inactive. Further, the result (in [7]; in the experiment with BCL2L11 (gene 10018); in experiment [8]; in [9]; in experiment [10]; with Caspase-3 (Homo sapiens)) was inactive. Besides, the call (in experiment [11]; in experiment [12]; in experiment [13]; in experiment [15]; in the experiment with CYP2C8 (gene 1558); in the experiment with CYP2C9 (gene 1559)) was inactive. The outcome in the experiment with CYP2E1 (gene 1571) was inactive. In addition, in [14], the AC50 was active: 11.6 µM.
As for `Cc1c([N+](=O)[O-])cccc1[N+](=O)[O-]`, the result in [1], in experiment [2], in experiment [3], in experiment [4], in experiment [5] and in experiment [6] was inactive. Further, the compound was classed as inactive (in experiment [7]; with BCL2L11 (gene 10018); in experiment [8]; in experiment [9]; in experiment [10]; with Caspase-3 (Homo sapiens)). The result (in [11]; in [12]; in experiment [13]; in experiment [15]; in the experiment with CYP2C8 (gene 1558); with CYP2C9 (gene 1559)) was inactive. For the same compound, in the experiment with CYP2E1 (gene 1571), the compound was called inactive. Moreover, the AC50 in experiment [14] is active: 21.4 µM.
Consider `O=[N+]([O-])c1cccc([N+](=O)[O-])c1`, for which the compound was called inactive in experiment [1], in experiment [2], in [3], in [4], in experiment [5] and in experiment [6]. The call (in experiment [7]; with BCL2L11 (gene 10018); in experiment [8]; in experiment [9]; in [10]; in the experiment with Caspase-3 (Homo sapiens)) was inactive. The compound was classed as inactive (in experiment [11]; in [12]; in experiment [13]; in experiment [14]; in experiment [15]; with CYP2C8 (gene 1558)). Besides, the result in the experiment with CYP2C9 (gene 1559) and with CYP2E1 (gene 1571) was inactive.
